Source: US20250304535A1, “KAT6 Inhibitors” (BeiGene Switzerland GmbH, priority 2024, published 2025)

The chains behind the UniProt entries cited, without tags or fusion partners. Residues count along the entry.
UniProt Q92794, 497-780: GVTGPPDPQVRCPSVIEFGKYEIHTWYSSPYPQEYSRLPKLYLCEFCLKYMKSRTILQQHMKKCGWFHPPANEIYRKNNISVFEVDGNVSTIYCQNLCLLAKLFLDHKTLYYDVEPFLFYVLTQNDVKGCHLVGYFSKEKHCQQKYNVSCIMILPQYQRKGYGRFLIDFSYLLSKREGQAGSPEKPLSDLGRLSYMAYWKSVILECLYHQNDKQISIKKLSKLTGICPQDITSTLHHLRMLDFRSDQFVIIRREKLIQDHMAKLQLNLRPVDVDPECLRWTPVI

Target: Recombinant human KAT6A protein (497-780) (Homo sapiens (Human), UniProt Q92794)
Test: KAT6A biochemical TR-FRET assay
Settings: histone H4 peptide 2000 nM, AcCoA 300 nM, enzyme 5 nM
Procedure: Enzymatic reactions of KAT6A and KAT6B were performed using Fluorescence Resonance Energy Transfer (TR-FRET) assay, which measures acetylation of a synthetic, biotinylated histone-H4 peptide by the KAT6A and KAT6B enzymes. Recombinant human KAT6A protein (497-780) were expressed in BL21 cell using an E. coli expression system. Recombinant human KAT6B protein (657-1069) was expressed in sf9 cell using a baculovirus expression system. Histone H4 peptide (SEQ ID NO: 1—[…]-GGK-Biotin), which was used as substrate, was synthesized by GL Biochem, Shanghai, China. Acetyl coenzyme A was purchased from Sigma-Aldrich (#A-2056).
Testing for the inhibition activities of various compounds disclosed herein was carried out at room temperature in assay buffer containing 100 mM Tris/HCl Ph7.8, 15 mM NaCl, 0.01% chicken egg white albumin, 1 mM DTT and 0.01% Tween-20. Compounds in DMSO were dispensed into wells of a black, 384-well plate (Corning 4514) using ECHO555 (Beckman). The final concentration ranges of the test compounds were 0.0625-1,000 nM, 0.625-10,000 nM, or 0.313-5,000 nM. […] TR-FRET was measured on a microplate reader (PHERAstar FSX, BMG labtech). The IC50s were calculated based on inhibition of enzyme activity in the presence of increasing concentrations of test compounds, and the results are shown in Table 6. […]

- IC50: ≤ 5 nM
Compound: COc1cccc(OC)c1S(=O)(=O)NC(=O)c1ccc(Cn2cccn2)c(OC)n1 [Example C69, 5-((1H-pyrazol-1-yl)methyl)-N-((2,6-dimethoxyphenyl)sulfonyl)-6-methoxy-picolinamide]
